Laboratory results from patent US5354758A, “Benzomorphans useful as NMDA receptor antagonists” (priority 1992, dated 1994).

Biological target: NMDA receptor site
Experiment: In vitro binding, inhibition of [^3 H]MK-801 binding to rat forebrain synaptic membranes
Set-up: species or system Sprague-Dawley rat
Conditions: 3 nM [^3 H]MK-801, 50 μM glycine and glutamate, 37° C., 2 hours, read-out: Ki [^3 H]MK801
Description: As described below, the compounds of the invention were tested for their ability to inhibit binding of radiolabeled versions of these known ligands.
Semipurified synaptic membranes were prepared according to the method of Bristow et al. (1986) with minor modifications. Sprague-Dawley rats were decapitated and the forebrains were removed, weighed, and homogenized in 20 volumes of 0.32M sucrose. The homogenate was centrifuged at 121×G for 10 min. The resulting supernatant was recentrifuged at 27,000×G for 15 min. The pellet was resuspended in 20 volumes of distilled water and this suspension was centrifuged at 8,000×G for 10 min. Both the supernatant and the buffy coat layer, removed with 2 mL of 5 mM Tris-Cl (pH 7.8), were pooled and centrifuged at 27,000×G for 15 min. The supernatant was removed, the pellet was covered with a small amount of 5 mM Tris-Cl, and the sample was frozen for at least 18 hrs at -20° C. Membranes were then washed four times in 5 mM Tris-Cl and finally resuspended in 25 mL. […]
The incubation was terminated by rapid filtration (Brandel Cell Harvester) over Whatman GF/B filters, which were then washed twice with 5 mL of 5 mM Tris-HCl. Radioactivity trapped on the filters was counted in 5 mL Scintiverse II at 50% efficiency in 7 mL minivials after standing at room temperature overnight.

Compound | Ki [µM]
COc1ccc2c(c1)[C@]13CCCC[C@@H]1[C@H](C2)N(C)CC3 [Dextromethorphan, reference compound] | 2.75
CN1CC[C@@]23CCCC[C@@H]2[C@@H]1Cc1ccc(O)cc13 [Dextrorphan, reference compound] | 0.52
